System: isolated BALB/c islet beta cells
Test: Culture-induced death of isolated islet beta cells, Sytox green uptake by flow cytometry
Type: cell-based, mouse
Details: 50 μg/ml, 2 days culture, untreated control 25-30% viability
Description: Pancreatic islets were isolated from non-diabetic BALB/c mice and dissociated into a single cell suspension (>90% beta cells) by Dispase digestion. Following 2 days culture in standard tissue culture medium 62% of the beta cells were dead, based on uptake of the fluorescent DNA binding dye, Sytox green (FIG. 4, upper panels). […] In the presence of heparin the highly viable Calcein^+, PI^−population of beta cells was increased from 25% to 86%, the dead population. (Calcein^−, PI^+) reduced from 18% to 1% and the apoptotic population (Calcein^+, PI^+) improved from 52% to 6%. […] Table 1 provides a statistical analysis of the data showing that heparin, highly sulfated heparan sulfate (HS^hi) and PI-88 can protect mouse beta cells from culture-induced cell death.
The impact of heparin treatment on beta cell viability was also independent of the source of heparin (FIG. 8a) and, based on viable cell numbers, was not observed after 1 h but did occur after continuous culture with heparin for 1-2 days (FIG. 8b).

Bis-lactobionic acid amide (C12 link) was tested, and the “Viability (%)” value was 64%.

Reference: US20130143840A1, “HEPARAN SULFATE REPLACEMENT THERAPY” (priority 2010, published 2013)
